## Measured affinities in a library of Ab-14 heavy chain variants

All variants were tested on one target, the spike HR2 peptide PDVDLGDISGINAS (SARS-CoV-2).

Ab-14 is the parent antibody, in scFv form: VH, then a (GGGGS)3 linker, then VL. The light chain is unchanged in all variants.
VH: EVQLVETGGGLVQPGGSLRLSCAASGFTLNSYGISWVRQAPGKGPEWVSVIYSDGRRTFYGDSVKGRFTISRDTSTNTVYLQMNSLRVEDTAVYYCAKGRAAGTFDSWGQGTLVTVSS
VL: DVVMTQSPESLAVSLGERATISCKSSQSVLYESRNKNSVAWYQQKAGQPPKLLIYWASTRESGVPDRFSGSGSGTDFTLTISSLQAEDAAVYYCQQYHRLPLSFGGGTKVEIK

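The starting antibody came from a phage panning campaign against this peptide. The library (AAYL49) carries one to three amino acid substitutions per variant, with no insertions or deletions. AlphaSeq pools MATa yeast showing the antibodies with MATalpha yeast showing the peptide. Binding brings cells together so that they mate, and sequencing counts the barcode pairs among the diploids. Read counts were normalised to the haploid input and turned into Kd by a linear fit to BCL2-family pairs of known affinity, for each replicate. The assay was run in three technical replicates.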

Substitutions are numbered in sequence along the VH above, starting at 1 (not Kabat). Scale: log10 of Kd in nM, estimated from mating counts; low values are strong binders. Replicates are averaged; those with no signal do not enter the mean. A pair that was not seen in that replicate is written "n.d."; this usually means weak binding, but a binder can also be missed.

| changes | log10 Kd (nM) by replicate | mean log10 Kd (nM) | control signals |
|---|---|---|---|
| T28M S63D A101P | 6.52 4.23 4.19 | 4.98 | 4 of 9 (4.23) |
| Y32C F59I S63P | n.d. n.d. n.d. | n.d. | 0 of 9 |
| G26H Y32P Y60D | n.d. n.d. n.d. | n.d. | 1 of 9 (3.73) |
| G26T R57G S107Q | n.d. n.d. n.d. | n.d. | 1 of 9 (3.76) |
| I34D D62N | n.d. n.d. n.d. | n.d. | 0 of 9 |
| Y32E T58R V64E | n.d. n.d. n.d. | n.d. | 0 of 9 |
| Y32W I34T D106C | n.d. 5.01 3.96 | 4.49 | 3 of 9 (4.18) |
| G26L G33Y D54L | n.d. n.d. 4.28 | 4.28 | 1 of 9 (3.88) |
| D106A | 2.17 1.79 2.24 | 2.07 | 1 of 9 (4.56) |
| S35R S53V D106W | 3.97 n.d. n.d. | 3.97 | 2 of 9 (3.86) |
| N30A S53I V64H | n.d. n.d. n.d. | n.d. | 1 of 9 (5.35) |
| F27I T104R D106T | 2.09 2.38 2.89 | 2.45 | 0 of 9 |
| Y32D I34K Y60C | n.d. 3.62 n.d. | 3.62 | 4 of 9 (2.73) |
| D54P A102M | n.d. n.d. n.d. | n.d. | 0 of 9 |
| S35G D62M T104E | n.d. n.d. n.d. | n.d. | 0 of 9 |
| A101M | 0.27 0.63 0.38 | 0.43 | 3 of 9 (4.02) |
| F27Q D54I T58I | 5.02 4.23 4.21 | 4.49 | 2 of 9 (4.77) |
| G55Y F59S G61K | n.d. n.d. n.d. | n.d. | 1 of 9 (3.69) |
| F27A F59P R100I | n.d. 4.21 4.67 | 4.44 | 5 of 9 (4.51) |
| I34C R57D K65M | n.d. n.d. 4.62 | 4.62 | 0 of 9 |
| R56Y K65M G103Y | 1.71 1.37 1.58 | 1.55 | 0 of 9 |
| Y32E F59M | n.d. n.d. 4.45 | 4.45 | 1 of 9 (4.52) |
| I34H F59Q V64L | n.d. n.d. n.d. | n.d. | 2 of 9 (4.45) |
| Y60F G61L F105A | n.d. n.d. n.d. | n.d. | 0 of 9 |
| L29I G33Y I34D | n.d. n.d. 4.49 | 4.49 | 1 of 9 (4.30) |
| G26P G61S G99Y | 0.65 1.08 0.89 | 0.87 | 3 of 9 (4.66) |
| S35C | n.d. n.d. n.d. | n.d. | 1 of 9 (4.23) |
| T28A Y32V S63I | n.d. n.d. n.d. | n.d. | 1 of 9 (3.13) |
| V50N D54Q R100M | n.d. 3.50 n.d. | 3.50 | 1 of 9 (3.60) |
| T28E R57M F105Y | n.d. n.d. n.d. | n.d. | 0 of 9 |
| Y32T F59M R100M | 4.90 4.39 n.d. | 4.64 | 3 of 9 (4.23) |
| F27P L29G A101R | n.d. n.d. n.d. | n.d. | 0 of 9 |
| T28V G33V G103Y | 4.39 2.90 5.32 | 4.20 | 3 of 9 (4.14) |
| T58G F59Q S63W | n.d. n.d. n.d. | n.d. | 0 of 9 |
| T28Q S31P Y32G | 4.87 3.34 n.d. | 4.10 | 3 of 9 (4.34) |
| F59S F105L | 3.54 1.71 1.99 | 2.41 | 0 of 9 |

Picked from the list: the 2 lowest averages where every replicate gave a value.

{"changes": "A101M", "log10 Kd (nM) by replicate": "0.27 0.63 0.38", "mean log10 Kd (nM)": "0.43", "control signals": "3 of 9 (4.02)"}
{"changes": "G26P G61S G99Y", "log10 Kd (nM) by replicate": "0.65 1.08 0.89", "mean log10 Kd (nM)": "0.87", "control signals": "3 of 9 (4.66)"}

For reference, the parent read 0.65 as the reference entry and 4.11 (one replicate of three) as a member of this library. Empty control strains, which show no peptide, gave a signal in 15% of pairings with library AAYL49; the median was 4.06 and 95% of these signals were weaker than 2.83. No background was subtracted. The control count says in how many pairings with the empty strains this scFv gave a signal, with their mean in brackets.

Reference: Engelhart et al. 2022, doi:10.1038/s41597-022-01779-4. File: FLAb, binding data.